From patent publication US10675286B2

Sequences of proteins named here, by UniProt entry; tags and fusion partners are left off.
UniProt P48736, whole entry: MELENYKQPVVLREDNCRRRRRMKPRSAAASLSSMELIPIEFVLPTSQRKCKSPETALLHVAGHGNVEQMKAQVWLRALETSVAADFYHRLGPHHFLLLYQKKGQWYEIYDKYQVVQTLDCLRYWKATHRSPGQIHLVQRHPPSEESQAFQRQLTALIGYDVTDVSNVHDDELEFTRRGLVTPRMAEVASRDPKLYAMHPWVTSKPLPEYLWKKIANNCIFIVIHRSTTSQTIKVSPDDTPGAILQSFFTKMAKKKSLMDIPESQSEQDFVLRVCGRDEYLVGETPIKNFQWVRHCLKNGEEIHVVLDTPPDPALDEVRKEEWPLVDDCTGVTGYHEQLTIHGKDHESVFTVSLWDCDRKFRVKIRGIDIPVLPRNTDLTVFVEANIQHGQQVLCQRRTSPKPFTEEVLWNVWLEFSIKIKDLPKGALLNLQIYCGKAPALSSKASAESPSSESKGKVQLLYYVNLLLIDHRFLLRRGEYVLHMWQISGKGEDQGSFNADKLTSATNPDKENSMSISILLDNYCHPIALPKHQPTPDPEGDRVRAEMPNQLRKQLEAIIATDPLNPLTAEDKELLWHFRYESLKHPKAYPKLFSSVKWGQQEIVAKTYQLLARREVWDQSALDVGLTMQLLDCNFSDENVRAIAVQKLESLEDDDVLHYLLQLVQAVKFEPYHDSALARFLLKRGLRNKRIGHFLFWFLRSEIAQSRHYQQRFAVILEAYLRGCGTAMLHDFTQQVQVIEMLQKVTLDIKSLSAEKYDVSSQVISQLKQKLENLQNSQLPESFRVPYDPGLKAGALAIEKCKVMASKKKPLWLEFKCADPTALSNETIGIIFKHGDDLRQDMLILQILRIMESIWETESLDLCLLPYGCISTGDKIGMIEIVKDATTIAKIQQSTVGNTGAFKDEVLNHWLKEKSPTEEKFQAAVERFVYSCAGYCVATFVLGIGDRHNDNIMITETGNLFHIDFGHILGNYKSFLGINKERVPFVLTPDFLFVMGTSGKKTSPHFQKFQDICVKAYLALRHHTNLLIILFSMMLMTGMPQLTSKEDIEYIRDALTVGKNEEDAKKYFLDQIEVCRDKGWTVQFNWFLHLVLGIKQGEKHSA

Molecular target: PI3K γ (Homo sapiens (Human), UniProt P48736)
Test: PI3-Kinase Promega ADP-Glo Max assay, γ isoform
Type: biochemical

Cc1ccnc2c(C(=O)N[C@@H](C)c3cc4cccc(C#Cc5cnn(C)c5)c4c(=O)n3-c3ccccc3)c(N)nn12
PI3K δ/PI3K γ IC50 (selectivity): X (X = 10 to <50)
